The target of the assay is Sodium-dependent dopamine transporter (Rattus norvegicus, UniProt P23977).

Amino acid sequences for entries named in this document (tags omitted).
UniProt P23977, whole entry: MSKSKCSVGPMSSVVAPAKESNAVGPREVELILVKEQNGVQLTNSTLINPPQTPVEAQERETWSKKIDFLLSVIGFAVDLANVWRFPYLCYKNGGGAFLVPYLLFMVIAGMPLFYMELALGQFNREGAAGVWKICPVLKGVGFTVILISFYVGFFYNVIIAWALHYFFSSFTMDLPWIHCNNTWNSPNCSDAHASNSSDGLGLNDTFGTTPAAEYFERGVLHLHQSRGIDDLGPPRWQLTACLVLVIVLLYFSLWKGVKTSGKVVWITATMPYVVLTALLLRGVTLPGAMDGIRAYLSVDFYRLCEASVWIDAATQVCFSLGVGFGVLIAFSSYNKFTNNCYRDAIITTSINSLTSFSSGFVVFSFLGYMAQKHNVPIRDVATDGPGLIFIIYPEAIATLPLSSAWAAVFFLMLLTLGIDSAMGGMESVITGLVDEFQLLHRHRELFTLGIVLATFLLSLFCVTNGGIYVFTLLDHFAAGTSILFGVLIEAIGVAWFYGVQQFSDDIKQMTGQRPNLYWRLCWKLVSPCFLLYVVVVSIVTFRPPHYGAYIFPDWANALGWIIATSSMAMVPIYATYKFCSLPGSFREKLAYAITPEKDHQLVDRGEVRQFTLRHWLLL

Each structure is given as a SMILES string. Values joined by “and” are separate entries in the source; they are usually repeats but may differ in a detail not shown here. Identical values can stand only once.

This note sets out measurements from BindingDB's records for PubMed 10773045 (Wake Forest University, 2000).

The term Ki denotes a dissociation constant, usually derived from enzyme kinetics or from competition with a known ligand. Regarding `CNCCC(Oc1ccccc1OC)c1ccccc1` (stereo unspecified) [3-(2-methoxyphenoxy)-N-methyl-3-phenylpropan-1-amine], the Ki is 334 nM and 378 nM and 433 nM.
